Assay results taken from US10752596B2, “Nitrogen-containing heteroaryl compound and pharmaceutical use thereof” (JAPAN TOBACCO INC., priority 2017, dated 2020).

Amino acid sequences for entries named in this document (tags omitted). Chains listed by the source or under a name are the forms on record and can include a tag or linker. Residues count along the entry.
UniProt Q9NRM0, 51-540 with tags or gaps limits assumed: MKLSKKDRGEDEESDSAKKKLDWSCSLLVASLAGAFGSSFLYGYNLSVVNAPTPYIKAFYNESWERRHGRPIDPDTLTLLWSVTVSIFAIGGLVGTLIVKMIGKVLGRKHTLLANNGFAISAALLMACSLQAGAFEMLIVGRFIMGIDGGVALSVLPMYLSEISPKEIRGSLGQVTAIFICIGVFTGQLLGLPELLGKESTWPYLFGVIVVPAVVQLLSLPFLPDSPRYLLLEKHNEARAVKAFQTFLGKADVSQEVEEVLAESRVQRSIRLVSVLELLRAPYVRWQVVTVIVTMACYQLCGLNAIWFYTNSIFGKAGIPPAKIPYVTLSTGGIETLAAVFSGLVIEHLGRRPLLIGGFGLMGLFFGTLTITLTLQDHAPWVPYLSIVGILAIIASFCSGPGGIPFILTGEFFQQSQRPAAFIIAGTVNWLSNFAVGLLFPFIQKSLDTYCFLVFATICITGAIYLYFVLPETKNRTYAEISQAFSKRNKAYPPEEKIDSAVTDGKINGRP

Biological target: human GLUT9 (Homo sapiens (Human), UniProt Q9NRM0)
Assay: Evaluation of human GLUT9 inhibitory activity ([14C] uric acid uptake in human GLUT9 expressing HEK293T cells transduced with Uricase/Hyper)
Settings: read-out: humans GLUT9 inhibitory activity (IC50 value (μM)), final 300 μM uric acid, 6 min, human GLUT9 stably expressing HEK293T cells

CCCCc1cnc(-c2ccc(OC)c(C)c2)c(-c2ccc(C(=O)O)cc2)n1
IC50: 0.15 µM

CCCCc1cnc(-c2ccc(CC)cc2)c(-c2ccc(C(=O)O)cc2)n1
IC50: 0.141 µM

CCCCc1cnc(-c2ccc(C)cc2)c(-c2ccc(C(=O)O)cc2)n1
IC50: 0.341 µM

COCCCc1cnc(-c2ccc(OC)cc2)c(-c2ccc(CCC(=O)O)cc2)c1
IC50: 0.0918 µM
